Antibody variant affinities, Ab-14 heavy chain, assay B

Target peptide (SARS-CoV-2 spike, HR2 region): PDVDLGDISGINAS

Ab-14 is the parent antibody, in scFv form: VH, then a 15-residue (Gly4Ser)3 linker, then VL. The light chain is unchanged in all variants.
VH: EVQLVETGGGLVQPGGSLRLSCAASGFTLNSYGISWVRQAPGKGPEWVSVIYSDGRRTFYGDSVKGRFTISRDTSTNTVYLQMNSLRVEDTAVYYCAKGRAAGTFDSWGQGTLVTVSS
VL: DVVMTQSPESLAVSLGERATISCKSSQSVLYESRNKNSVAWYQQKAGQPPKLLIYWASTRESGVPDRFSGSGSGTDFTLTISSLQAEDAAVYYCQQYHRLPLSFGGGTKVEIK

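Phage display of a naive human antibody library on the peptide gave the parent. Designed CDR sequences, proposed from the first random library and measured here. Several design methods are mixed in this list. The assay is AlphaSeq: two haploid yeast populations carry antibody and antigen on their surface. Binding brings cells together so that they mate, and sequencing counts the barcode pairs among the diploids. A regression on co-assayed BCL2-family reference pairs converts the normalised counts of each replicate to an apparent Kd. There are six technical replicates.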

The parent's heavy chain CDRs are GFTLNSYGIS, VIYSDGRRTFYGDSVK, GRAAGTFDS; each variant's own CDRs replace them letter for letter.
Kd is apparent (estimated from mating counts) and averaged on the log scale over replicates with a signal. Smaller is tighter.
"no signal" means that the variant was in the library but no mating with the target was seen in any replicate; the authors take this as a sign of poor binding, and no number exists.
A sequence measured in both rounds can read differently, since the two assays cover different ranges.

CDR-H1	CDR-H2	CDR-H3	apparent Kd	seen in
GFDLQEYGIS	VIYADGVREAYANSFK	GQIAGTINS	15 nM	4 of 6
GFDLNEYGIS	VIYADGRRTVYADSVK	GEVAGTFDV	300 pM	6 of 6
GFHLNSYGIS	VIYSDGRRTFYADSVK	GEAAGTFDS	1.7 nM	6 of 6
GFILNSYGIS	VIYSDGRRTFYSDLVK	GRAAGTFDS	no signal	0 of 6
GFDLNEYGIS	VIYADGMRTYYADDVK	GSNAGTFDV	180 pM	6 of 6
GFDLNEYGIS	VIYADGIRTAYADSVK	GNVAGTFDV	630 pM	6 of 6
GFSLNEYGIS	VIYSDGRRTFYCDSVK	GQAAGTFDR	49 nM	6 of 6
KFTLNSYGIS	VIYSDGRRTFYADSVK	GQTAGTFDS	6.4 nM	6 of 6
GFDLNSYGIS	VIYSDGRRTFYADKVK	GQAAGTFDN	3.6 nM	6 of 6
GFDLNEYGIS	VIYADGQRTFYADSVK	GNVAGTFDT	360 pM	6 of 6
GFQLNSYGIS	VIYSDGRRTWYGDSVK	GQAAGTFDS	6.3 nM	3 of 6
GFSLNSYGIS	VIYADGRRTFYGDSVK	GQAAGTFDL	1.2 nM	6 of 6
GFDLNEYGIS	VIYADGMRSALINSVK	GTLSGTFIA	no signal	0 of 6
GFALNSYGIS	VIYADGRRTFYGDSVK	GKAAGTFDS	910 pM	6 of 6
GFTLESYGIS	VIYSDGRRTFYGDFVK	GRAAGTFDS	no signal	0 of 6
QFDLNSYGIS	VIYSDGRRTFYGDSVK	GKEAGTFDS	4.0 nM	6 of 6
GFDLNEYGIS	VIYADGMRTAYSDSVK	GGNAGTFDT	540 pM	6 of 6
GFDLNEYGIS	VIYADGRRTFYVDSVK	GQNAGTFDS	750 pM	6 of 6
GFTLESYGIS	VIYSDGRRTFYGDSVK	GRAAGTFSQ	320 nM	5 of 6
GFNINEYGIS	VIYADGVRTHYVDDVK	GKHTGVKMD	820 nM	1 of 6
GFQLNEYGIS	VIYSDGRRTFYGDSVK	GRAAGTFTS	no signal	0 of 6
GFALNEYGIS	VIYSDGRRTFYGDSVK	GWTAGTFDS	2.9 nM	6 of 6
GFDLNEYGIS	VIYADGMRTFYTDSVK	GNVAGTFDL	470 pM	6 of 6
GFDLDEYGIS	VIYADGRRTFYSDSVK	GEAAGTFDM	130 pM	6 of 6
GFDLNSYGIS	VIYADGRRTFYGDSVK	GRAAGTFDS	360 pM	6 of 6
GFTLNSYGIS	VIYSDGRRTMYGDSVK	GRCAGTFDS	41 nM	1 of 6
GFDLNSYGIS	VIYSDGRRTFYIDAVK	GRTAGTFDS	4.0 nM	6 of 6
GFTLNSYGIS	VIYSDGMRTFYGDSVK	GRVAGEFDS	no signal	0 of 6

Further variants, results first:

apparent Kd	seen in	CDR-H1	CDR-H2	CDR-H3
180 pM	6 of 6	GFDLNEYGIS	VIYADGMRTAYADDVK	GQVAGTFDM
no signal	0 of 6	GFNLDEYGIS	VIYADGRRTAYADSVK	NSVMSGRVT
no signal	0 of 6	GFTLNSYGIS	VIYSDGRRTFYGDSVK	GRAAVTFDQ
no signal	0 of 6	GDTLDSYGIS	VIYSDGRRTPYGDSVK	GRAAGTALS
no signal	0 of 6	GFQLNDYGIS	VIYSDGRRTFYGDSVK	GRLAGTFIS
no signal	0 of 6	GYTLASYGIS	VIYSDGRRTFYGDSVK	GWAAGTFDS
no signal	0 of 6	GQSLDDYGIS	VIYADGQRKAAVDEVK	GEVAGTLDI
no signal	0 of 6	GTTLNSYGIS	VIYSDGRRTFYHDSTK	GRAAGTFFS
95 pM	5 of 6	GFDLNEYGIS	VIYADGMRTAYADDVK	GTNAGTFDV
2.1 nM	6 of 6	GFDLNEYGIS	VIYADGKRTAYVDSVK	GANAGTFDV
no signal	0 of 6	GVDIDEYGIS	VIYADGIRTFYIDKVK	GNLGGQFDM
870 pM	6 of 6	GFTLNEYGIS	VIYSDGRRTFYGDSVK	GREAGTFDK
370 pM	6 of 6	GFDLDEYGIS	VIYADGMRTAYANSVK	GEVAGTFDV
14 nM	1 of 6	GFTLNSYGIS	VIYSDGLRTFYIDSVK	GQAAGTFDS
no signal	0 of 6	GVDIDEYGIS	VIYADGIRTFYIDRVK	GNLGGQFDM
370 pM	6 of 6	GFDLNEYGIS	VIYADGRRTFYKDSVK	GEAAGTFDM
890 pM	6 of 6	GFDLNEYGIS	VIYADGKRTQYIDSVK	GEIAGTFDS
2.6 nM	6 of 6	GFSLNEYGIS	VIYSDGKRTFYGDSVK	GKAAGTFDS
no signal	0 of 6	GFQLNSYGIS	VIYSDGRRTFYGDSVK	GRHAGTFDS
1.1 nM	6 of 6	GFEIQDYGIS	VIYADGLRTSYSDKFK	GIIAGTFNS
5.5 nM	6 of 6	GFDLNEYGIS	VIYSDGRRTFYGDDVK	GEAAGTFDK
130 pM	6 of 6	GFDLNEYGIS	VIYADGRRTFYTDSVK	GANAGTFDV
no signal	0 of 6	GFNLNSYGIS	VIYSDGLRTFIGDSVK	GRAAGTFDS
180 pM	6 of 6	GFDINEYGIS	VIYADGRRTFYADSVK	GQTAGTFDM
no signal	0 of 6	GETLNSYGIS	VIYSDGRRTFYGDSVV	GRAAGTFDS
160 nM	6 of 6	GFTLNSYGIS	VIYADGRRTFYGDSVK	GQAAGTFSS
no signal	0 of 6	GFTLNDYGIS	VIYKDGRRTFYGDSVK	GRAALTFIS
46 nM	3 of 6	GFTLNEYGIS	VIYSDGRRTFYGDEVK	GRAAVTFDQ

The first 4 variants above that were never detected:

{"CDR-H1": "GFILNSYGIS", "CDR-H2": "VIYSDGRRTFYSDLVK", "CDR-H3": "GRAAGTFDS", "apparent Kd": "no signal", "seen in": "0 of 6"}
{"CDR-H1": "GFDLNEYGIS", "CDR-H2": "VIYADGMRSALINSVK", "CDR-H3": "GTLSGTFIA", "apparent Kd": "no signal", "seen in": "0 of 6"}
{"CDR-H1": "GFTLESYGIS", "CDR-H2": "VIYSDGRRTFYGDFVK", "CDR-H3": "GRAAGTFDS", "apparent Kd": "no signal", "seen in": "0 of 6"}
{"CDR-H1": "GFQLNEYGIS", "CDR-H2": "VIYSDGRRTFYGDSVK", "CDR-H3": "GRAAGTFTS", "apparent Kd": "no signal", "seen in": "0 of 6"}

The authors' rule: three or more of the six replicates give a measured affinity, fewer mean a poor binder.
Of ten entries with the parent sequence, four were seen in most replicates (averages 2.2 nM to 240 nM), three in one and three in none, so single entries are noisy.
Three control strains display no target. For all heavy chain designs, 1% of the pairings with them gave a signal, with a median of 120 nM and one signal in twenty below 7.0 nM, so weak values seen in few replicates may be background.

Source: Li et al. 2023 (doi:10.1038/s41467-023-39022-2), MIT Lincoln Laboratory and A-Alpha Bio; data file from the FLAb repository.